Laboratory results: ChEMBL document CHEMBL5653605, “Reduced VEGF production, angiogenesis, and vascular regrowth contribute to the antitumor properties of dual mTORC1/mTORC2 inhibitors” (Cancer Res, 2011)

Protein sequences, listed by entry. Tags and fused reporters are not part of them. Lines headed by an entry give the natural chain unless they say otherwise; changes in a name come on top.
UniProt P48736: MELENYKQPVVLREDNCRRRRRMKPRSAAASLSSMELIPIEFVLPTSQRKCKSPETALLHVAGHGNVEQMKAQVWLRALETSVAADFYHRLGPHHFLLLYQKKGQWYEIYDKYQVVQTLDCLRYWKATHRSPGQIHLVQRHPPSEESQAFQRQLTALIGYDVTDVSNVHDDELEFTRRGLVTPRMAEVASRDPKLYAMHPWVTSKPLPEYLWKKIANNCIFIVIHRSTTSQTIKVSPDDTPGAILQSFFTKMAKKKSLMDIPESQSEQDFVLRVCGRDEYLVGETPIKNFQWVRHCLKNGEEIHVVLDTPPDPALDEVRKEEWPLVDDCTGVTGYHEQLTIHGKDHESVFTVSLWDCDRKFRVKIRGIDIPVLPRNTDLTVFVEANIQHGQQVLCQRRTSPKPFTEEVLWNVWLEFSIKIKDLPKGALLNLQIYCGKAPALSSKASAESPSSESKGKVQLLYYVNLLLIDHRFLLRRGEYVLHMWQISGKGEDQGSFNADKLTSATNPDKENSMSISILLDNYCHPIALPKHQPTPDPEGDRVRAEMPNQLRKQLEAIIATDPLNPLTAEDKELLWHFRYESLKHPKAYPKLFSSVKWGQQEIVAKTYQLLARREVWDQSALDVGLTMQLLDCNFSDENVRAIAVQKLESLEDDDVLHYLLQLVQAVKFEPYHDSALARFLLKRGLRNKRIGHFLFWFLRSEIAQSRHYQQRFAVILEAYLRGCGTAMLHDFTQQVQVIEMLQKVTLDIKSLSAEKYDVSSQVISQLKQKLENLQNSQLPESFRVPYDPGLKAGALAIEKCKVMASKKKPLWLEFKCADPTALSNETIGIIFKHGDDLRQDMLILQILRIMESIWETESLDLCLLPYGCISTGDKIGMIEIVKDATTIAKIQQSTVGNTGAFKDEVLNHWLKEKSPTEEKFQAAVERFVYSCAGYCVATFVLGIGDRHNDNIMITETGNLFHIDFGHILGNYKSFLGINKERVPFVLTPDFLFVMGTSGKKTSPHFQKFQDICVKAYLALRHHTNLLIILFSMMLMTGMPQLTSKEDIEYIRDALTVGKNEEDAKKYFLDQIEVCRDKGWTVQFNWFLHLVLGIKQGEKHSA
UniProt P07949, whole entry: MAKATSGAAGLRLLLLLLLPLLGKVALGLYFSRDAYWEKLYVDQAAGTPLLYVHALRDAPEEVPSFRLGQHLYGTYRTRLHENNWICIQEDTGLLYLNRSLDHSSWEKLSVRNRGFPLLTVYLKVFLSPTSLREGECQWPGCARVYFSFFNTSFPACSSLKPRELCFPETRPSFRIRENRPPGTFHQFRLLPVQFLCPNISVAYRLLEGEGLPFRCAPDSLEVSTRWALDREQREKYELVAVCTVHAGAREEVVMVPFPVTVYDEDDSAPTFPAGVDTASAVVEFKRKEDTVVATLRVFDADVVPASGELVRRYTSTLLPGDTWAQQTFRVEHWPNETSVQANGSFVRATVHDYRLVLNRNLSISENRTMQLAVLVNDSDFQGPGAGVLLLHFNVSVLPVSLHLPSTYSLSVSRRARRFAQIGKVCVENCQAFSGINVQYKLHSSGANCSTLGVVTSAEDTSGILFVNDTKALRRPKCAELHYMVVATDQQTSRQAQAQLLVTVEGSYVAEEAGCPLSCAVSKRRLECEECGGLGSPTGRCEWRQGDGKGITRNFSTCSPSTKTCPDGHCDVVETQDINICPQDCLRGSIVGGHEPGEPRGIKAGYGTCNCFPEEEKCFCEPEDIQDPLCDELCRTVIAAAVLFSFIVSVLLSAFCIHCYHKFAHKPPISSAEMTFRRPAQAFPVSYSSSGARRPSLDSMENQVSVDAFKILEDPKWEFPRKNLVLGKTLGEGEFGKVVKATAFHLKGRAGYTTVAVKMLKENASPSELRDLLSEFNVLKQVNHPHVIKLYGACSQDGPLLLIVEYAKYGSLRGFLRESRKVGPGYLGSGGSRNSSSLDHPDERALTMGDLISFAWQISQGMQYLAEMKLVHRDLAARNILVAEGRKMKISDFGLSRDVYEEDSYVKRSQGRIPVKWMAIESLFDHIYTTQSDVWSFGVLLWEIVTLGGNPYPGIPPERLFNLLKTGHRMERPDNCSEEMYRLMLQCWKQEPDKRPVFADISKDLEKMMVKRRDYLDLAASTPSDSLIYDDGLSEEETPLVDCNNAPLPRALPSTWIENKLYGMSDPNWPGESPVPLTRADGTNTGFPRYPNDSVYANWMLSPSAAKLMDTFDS

How the values were obtained:
[1] = biological target: T1, Phosphatidylinositol 4,5-bisphosphate 3-kinase catalytic subunit delta isoform (Homo sapiens) (UniProt O00329); test: Inhibition of PI3Kdelta (unknown origin) at 3 uM by Ambit Kinomescan assay relative to control
T1 sequence (whole entry): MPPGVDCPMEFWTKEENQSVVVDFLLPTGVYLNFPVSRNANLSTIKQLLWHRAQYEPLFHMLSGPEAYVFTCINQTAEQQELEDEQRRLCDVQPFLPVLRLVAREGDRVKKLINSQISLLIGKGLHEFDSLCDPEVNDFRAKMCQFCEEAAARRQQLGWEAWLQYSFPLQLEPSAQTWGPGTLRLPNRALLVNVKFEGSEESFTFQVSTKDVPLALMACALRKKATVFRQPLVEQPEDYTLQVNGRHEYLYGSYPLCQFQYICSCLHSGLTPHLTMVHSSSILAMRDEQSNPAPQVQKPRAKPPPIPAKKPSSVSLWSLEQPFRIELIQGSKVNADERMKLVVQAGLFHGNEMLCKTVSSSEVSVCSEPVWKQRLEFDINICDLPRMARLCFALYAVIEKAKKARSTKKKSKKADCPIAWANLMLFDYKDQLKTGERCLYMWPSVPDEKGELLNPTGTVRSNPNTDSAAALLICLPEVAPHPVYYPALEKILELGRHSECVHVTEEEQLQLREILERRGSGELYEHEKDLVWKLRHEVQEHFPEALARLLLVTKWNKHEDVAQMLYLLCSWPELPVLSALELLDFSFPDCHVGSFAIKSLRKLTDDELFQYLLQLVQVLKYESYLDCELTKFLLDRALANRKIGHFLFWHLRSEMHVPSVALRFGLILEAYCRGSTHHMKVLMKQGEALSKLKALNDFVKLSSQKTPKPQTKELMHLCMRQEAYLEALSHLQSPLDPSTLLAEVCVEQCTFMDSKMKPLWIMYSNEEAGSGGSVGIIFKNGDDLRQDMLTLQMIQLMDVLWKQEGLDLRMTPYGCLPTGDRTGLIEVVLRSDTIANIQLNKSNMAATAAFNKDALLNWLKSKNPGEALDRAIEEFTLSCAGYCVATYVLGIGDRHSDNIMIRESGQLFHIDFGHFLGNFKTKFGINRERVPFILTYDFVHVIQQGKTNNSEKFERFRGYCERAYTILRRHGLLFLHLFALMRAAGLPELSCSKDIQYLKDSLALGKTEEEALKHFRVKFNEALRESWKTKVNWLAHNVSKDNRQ

[2] = biological target: Phosphatidylinositol 4,5-bisphosphate 3-kinase catalytic subunit gamma isoform (Homo sapiens, UniProt P48736); test: Inhibition of PI3Kgamma (unknown origin) at 3 uM by Ambit Kinomescan assay relative to control
[3] = biological target: Proto-oncogene tyrosine-protein kinase receptor Ret (Homo sapiens) (UniProt P07949); test: Inhibition of RET (unknown origin) at 3 uM by Ambit Kinomescan assay relative to control

Measured: inhibition

COc1cccc2cc(-c3nc([C@H]4CC[C@H](C(=O)O)CC4)n4ncnc(N)c34)[nH]c12 [OSI-027]
> 90%: all assays above
